Drawing on ChEMBL document CHEMBL5137076, “SLL-627 Is a Highly Selective and Potent κ Opioid Receptor (KOR) Agonist with an Unexpected Nonreduction in Locomotor Activity” (2022), this text covers Ratio Ki for 17 molecules.

The species named for the assay is Homo sapiens. Briefly: Selectivity index, ratio of Ki for displacement of [3H]DPDPE from rat DOR expressed in CHO cell membranes to Ki for displacement of [3H]U69593 from human KOR expressed in CHO cell membranes.
Take `COc1ccc2c3c1O[C@H]1[C@@]4(OC)CC[C@@]5(C[C@@]4(C)[C@H](O)c4ccc(C)cc4)[C@@H](C2)N(CC2CC2)CC[C@]315`: the Ratio Ki was greater than 382.

Turning to `COc1ccc2c3c1O[C@H]1[C@@]4(OC)CC[C@@]5(C[C@@]4(C)CO)[C@@H](C2)N(CC2CC2)CC[C@]315`, the Ratio Ki is 25. Consider `COc1ccc2c3c1O[C@H]1[C@@]4(OC)CC[C@@]5(C[C@@]4(C)C(=O)c4ccccc4)[C@@H](C2)N(CC2CC2)CC[C@]315`, for which the Ratio Ki is greater than 250. In the case of `COc1ccc2c3c1O[C@H]1[C@@]4(OC)CC[C@@]5(C[C@@]4(C)C(=O)c4ccc(C)cc4)[C@@H](C2)N(CC2CC2)CC[C@]315` it was greater than 120; in that of `COc1ccc2c3c1O[C@H]1[C@@]4(OC)CC[C@@]5(C[C@@]4(C)[C@H](O)c4ccccc4)[C@@H](C2)N(CC2CC2)CC[C@]315`, greater than 1520. In the case of `COc1ccc2c3c1O[C@H]1[C@@]4(OC)CC[C@@]5(C[C@@]4(C)[C@H](O)c4ccc(Cl)c(Cl)c4)[C@@H](C2)N(CC2CC2)CC[C@]315` it was 0.04. Take `COc1ccc2c3c1O[C@H]1[C@@]4(OC)CC[C@@]5(C[C@@]4(C)C(=O)c4ccc(-c6ccccc6)cc4)[C@@H](C2)N(CC2CC2)CC[C@]315`: the Ratio Ki is greater than 22.

In the case of `COc1ccc2c3c1O[C@H]1[C@@]4(OC)CC[C@@]5(C[C@@]4(C)C(=O)c4cc(C)cc(C)c4)[C@@H](C2)N(CC2CC2)CC[C@]315`, the Ratio Ki turned out to be 3.2. In the case of `COc1ccc([C@@H](O)[C@]2(C)C[C@@]34CC[C@]2(OC)[C@@H]2Oc5c(OC)ccc6c5[C@@]23CCN(CC2CC2)[C@@H]4C6)cc1` it was 29; in that of `COc1ccc2c3c1O[C@H]1[C@@]4(OC)CC[C@@]5(C[C@@]4(C)C(=O)c4ccc(C(C)C)cc4)[C@@H](C2)N(CC2CC2)CC[C@]315`, 2.

Turning to `COc1ccc(C(=O)[C@]2(C)C[C@@]34CC[C@]2(OC)[C@@H]2Oc5c(OC)ccc6c5[C@@]23CCN(CC2CC2)[C@@H]4C6)cc1`, the Ratio Ki was found to be 8.

For the molecule `COc1ccc2c3c1O[C@H]1[C@@]4(OC)CC[C@@]5(C[C@@]4(C)[C@H](O)c4ccc(C(C)C)cc4)[C@@H](C2)N(CC2CC2)CC[C@]315`, the Ratio Ki worked out at 0.2.

For `COc1ccc2c3c1O[C@H]1[C@@]4(OC)CC[C@@]5(C[C@@]4(C)C(=O)c4ccc(C(F)(F)F)cc4)[C@@H](C2)N(CC2CC2)CC[C@]315`, the Ratio Ki came out at 27. As to `COc1ccc2c3c1O[C@H]1[C@@]4(OC)CC[C@@]5(C[C@@]4(C)[C@H](O)c4ccc(C(F)(F)F)cc4)[C@@H](C2)N(CC2CC2)CC[C@]315`, the Ratio Ki is 1460.

Consider `COc1cccc([C@@H](O)[C@]2(C)C[C@@]34CC[C@]2(OC)[C@@H]2Oc5c(OC)ccc6c5[C@@]23CCN(CC2CC2)[C@@H]4C6)c1`, for which the Ratio Ki amounted to 52. In the case of `COc1ccc2c3c1O[C@H]1[C@@]4(OC)CC[C@@]5(C[C@@]4(C)C=O)[C@@H](C2)N(CC2CC2)CC[C@]315` it was 4.2; in that of `COc1ccc2c3c1O[C@H]1[C@@]4(OC)CC[C@@]5(C[C@@]4(C)C(=O)c4ccc6ccccc6c4)[C@@H](C2)N(CC2CC2)CC[C@]315`, 4.
